Biological target: Cj6OMT (Coptis japonica, UniProt Q9LEL6)

The chains behind the UniProt entries cited, without tags or fusion partners.
UniProt Q9LEL6, whole entry: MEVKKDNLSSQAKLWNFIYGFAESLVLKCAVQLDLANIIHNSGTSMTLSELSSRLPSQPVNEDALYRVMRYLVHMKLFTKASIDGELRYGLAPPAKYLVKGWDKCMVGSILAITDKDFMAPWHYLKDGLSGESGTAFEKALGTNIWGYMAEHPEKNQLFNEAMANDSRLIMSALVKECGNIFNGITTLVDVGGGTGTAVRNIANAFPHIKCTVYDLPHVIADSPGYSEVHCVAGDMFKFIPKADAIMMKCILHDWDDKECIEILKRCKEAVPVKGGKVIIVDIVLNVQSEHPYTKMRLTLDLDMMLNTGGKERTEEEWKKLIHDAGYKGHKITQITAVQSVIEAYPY

COc1ccc2c(c1O)CN1CCc3cc(O)c(O)cc3C1C2 (stereo not shown)
Km: 59.5 µM

— paper PMC10607743, “An Enzymatic Strategy for the Selective Methylation of High-Value-Added Tetrahydroprotoberberine Alkaloids” (International Journal of Molecular Sciences, 2023)
